Literature values as cited in patent publication US20230295183A1, “HOT MELT EXTRUDED SOLID DISPERSIONS CONTAINING A BCL2 INHIBITOR” (Newave Pharmaceutical Inc., priority 2020, published 2023).

Chains of the proteins cited; added tags and fusions are not shown.
UniProt P10415, whole entry: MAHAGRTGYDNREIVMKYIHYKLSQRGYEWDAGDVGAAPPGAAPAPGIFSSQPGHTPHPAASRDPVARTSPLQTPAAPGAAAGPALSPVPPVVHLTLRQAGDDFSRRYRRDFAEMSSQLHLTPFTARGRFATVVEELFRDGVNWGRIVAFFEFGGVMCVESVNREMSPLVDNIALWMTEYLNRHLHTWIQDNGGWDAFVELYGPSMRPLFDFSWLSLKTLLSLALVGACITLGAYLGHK

Biological target: BCL-2 (Homo sapiens, UniProt P10415)

Ki: ≤ 1 nM
SMILES: CC1(C)CCC(c2ccc(Cl)cc2)=C(CN2CCN(c3ccc(C(=O)NS(=O)(=O)c4ccc(N[C@H](CCN5CCOCC5)CSc5ccccc5)c(S(=O)(=O)C(F)(F)F)c4)cc3)CC2)C1 [ABT-263]
